Measured values taken from ChEMBL document CHEMBL5260839 (J Med Chem, 2019).

By UniProt entry, the sequences of proteins in these tests, tags left out.
UniProt Q00987, whole entry, looked up: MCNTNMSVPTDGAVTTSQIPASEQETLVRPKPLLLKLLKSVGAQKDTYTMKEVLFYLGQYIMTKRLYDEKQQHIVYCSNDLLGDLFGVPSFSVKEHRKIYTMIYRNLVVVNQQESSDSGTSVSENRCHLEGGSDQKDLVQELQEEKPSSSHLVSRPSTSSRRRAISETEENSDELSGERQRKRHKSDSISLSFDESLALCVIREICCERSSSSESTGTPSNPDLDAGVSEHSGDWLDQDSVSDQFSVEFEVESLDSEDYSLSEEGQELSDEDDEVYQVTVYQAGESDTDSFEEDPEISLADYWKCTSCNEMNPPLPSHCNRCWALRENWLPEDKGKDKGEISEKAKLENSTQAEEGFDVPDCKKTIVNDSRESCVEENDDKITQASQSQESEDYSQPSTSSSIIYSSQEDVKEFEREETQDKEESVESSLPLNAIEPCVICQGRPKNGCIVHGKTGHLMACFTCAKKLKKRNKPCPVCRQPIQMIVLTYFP
UniProt P40337, whole entry, looked up: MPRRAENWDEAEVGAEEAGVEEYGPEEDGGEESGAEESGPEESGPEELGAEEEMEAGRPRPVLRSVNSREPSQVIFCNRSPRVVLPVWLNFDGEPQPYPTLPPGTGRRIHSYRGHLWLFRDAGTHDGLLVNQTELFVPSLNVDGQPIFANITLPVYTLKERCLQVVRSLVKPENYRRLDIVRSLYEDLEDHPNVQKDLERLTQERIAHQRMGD

Legend:
Format in all cases: cell-based
[1] = molecular target: T1, von Hippel-Lindau disease tumor suppressor/E3 ubiquitin-protein ligase Mdm2 (Homo sapiens) (UniProt Q00987+P40337); assay: PROTAC activity at VHL/MDM2 in human RS4-11 cells harbouring wildtype p53 assessed as fold change in MDM2 level at 0.1 uM incubated for 2 hrs by Western blot analysis
[2] = molecular target: T1, von Hippel-Lindau disease tumor suppressor/E3 ubiquitin-protein ligase Mdm2 (Homo sapiens); assay: PROTAC activity at VHL/MDM2 in human RS4-11 cells harbouring wildtype p53 assessed as fold change in MDM2 level at 0.3 uM incubated for 2 hrs by Western blot analysis
[3] = molecular target: T1, von Hippel-Lindau disease tumor suppressor/E3 ubiquitin-protein ligase Mdm2 (Homo sapiens); assay: PROTAC activity at VHL/MDM2 in human RS4-11 cells harbouring wildtype p53 assessed as fold change in MDM2 level at 1 uM incubated for 2 hrs by Western blot analysis
[4] = molecular target: T1, von Hippel-Lindau disease tumor suppressor/E3 ubiquitin-protein ligase Mdm2 (Homo sapiens); assay: PROTAC activity at VHL/MDM2 in human RS4-11 cells harbouring wildtype p53 assessed as fold change in MDM2 level at 3 uM incubated for 2 hrs by Western blot analysis
[5] = molecular target: T1, von Hippel-Lindau disease tumor suppressor/E3 ubiquitin-protein ligase Mdm2 (Homo sapiens); assay: PROTAC activity at VHL/MDM2 in human RS4-11 cells harbouring wildtype p53 assessed as fold change in MDM2 level at 10 uM incubated for 2 hrs by Western blot analysis
[6] = molecular target: T1, von Hippel-Lindau disease tumor suppressor/E3 ubiquitin-protein ligase Mdm2 (Homo sapiens); assay: PROTAC activity at VHL/MDM2 in human RS4-11 cells harbouring wildtype p53 assessed as fold change in p53 accumulation level at 0.1 uM incubated for 2 hrs by Western blot analysis
[7] = molecular target: T1, von Hippel-Lindau disease tumor suppressor/E3 ubiquitin-protein ligase Mdm2 (Homo sapiens); assay: PROTAC activity at VHL/MDM2 in human RS4-11 cells harbouring wildtype p53 assessed as fold change in p53 accumulation level at 0.3 uM incubated for 2 hrs by Western blot analysis
[8] = molecular target: T1, von Hippel-Lindau disease tumor suppressor/E3 ubiquitin-protein ligase Mdm2 (Homo sapiens); assay: PROTAC activity at VHL/MDM2 in human RS4-11 cells harbouring wildtype p53 assessed as fold change in p53 accumulation level at 1 uM incubated for 2 hrs by Western blot analysis
[9] = molecular target: T1, von Hippel-Lindau disease tumor suppressor/E3 ubiquitin-protein ligase Mdm2 (Homo sapiens); assay: PROTAC activity at VHL/MDM2 in human RS4-11 cells harbouring wildtype p53 assessed as fold change in p53 accumulation level at 3 uM incubated for 2 hrs by Western blot analysis
[10] = molecular target: T1, von Hippel-Lindau disease tumor suppressor/E3 ubiquitin-protein ligase Mdm2 (Homo sapiens); assay: PROTAC activity at VHL/MDM2 in human RS4-11 cells harbouring wildtype p53 assessed as fold change in p53 accumulation level at 10 uM incubated for 2 hrs by Western blot analysis
[11] = molecular target: T2, E3 ubiquitin-protein ligase Mdm2 (Homo sapiens, UniProt Q00987); assay: Inhibition of MDM2 in human RS4-11 cells harbouring wildtype p53 assessed as fold increase in p21 level at 0.3 uM incubated for 2 hrs by Western blot analysis
[12] = molecular target: T1, von Hippel-Lindau disease tumor suppressor/E3 ubiquitin-protein ligase Mdm2 (Homo sapiens); assay: PROTAC activity at VHL/MDM2 in human RS4-11 cells harbouring wildtype p53 assessed as fold change in p21 level at 0.1 uM incubated for 2 hrs by Western blot analysis
[13] = molecular target: T1, von Hippel-Lindau disease tumor suppressor/E3 ubiquitin-protein ligase Mdm2 (Homo sapiens); assay: PROTAC activity at VHL/MDM2 in human RS4-11 cells harbouring wildtype p53 assessed as fold change in p21 level at 0.3 uM incubated for 2 hrs by Western blot analysis
[14] = molecular target: T1, von Hippel-Lindau disease tumor suppressor/E3 ubiquitin-protein ligase Mdm2 (Homo sapiens); assay: PROTAC activity at VHL/MDM2 in human RS4-11 cells harbouring wildtype p53 assessed as fold change in p21 level at 1 uM incubated for 2 hrs by Western blot analysis
[15] = molecular target: T1, von Hippel-Lindau disease tumor suppressor/E3 ubiquitin-protein ligase Mdm2 (Homo sapiens); assay: PROTAC activity at VHL/MDM2 in human RS4-11 cells harbouring wildtype p53 assessed as fold change in p21 level at 3 uM incubated for 2 hrs by Western blot analysis
[16] = molecular target: T1, von Hippel-Lindau disease tumor suppressor/E3 ubiquitin-protein ligase Mdm2 (Homo sapiens); assay: PROTAC activity at VHL/MDM2 in human RS4-11 cells harbouring wildtype p53 assessed as fold change in p21 level at 10 uM incubated for 2 hrs by Western blot analysis
[17] = molecular target: T2, E3 ubiquitin-protein ligase Mdm2; assay: Inhibition of MDM2 in human RS4-11 cells harbouring wildtype p53 assessed as fold increase in cleaved PARP level at 0.1 uM incubated for 2 hrs by Western blot analysis
[18] = molecular target: T2, E3 ubiquitin-protein ligase Mdm2; assay: Inhibition of MDM2 in human RS4-11 cells harbouring wildtype p53 assessed as fold increase in cleaved PARP level at 0.3 uM incubated for 2 hrs by Western blot analysis
[19] = molecular target: T1, von Hippel-Lindau disease tumor suppressor/E3 ubiquitin-protein ligase Mdm2 (Homo sapiens); assay: PROTAC activity at VHL/MDM2 in human RS4-11 cells harbouring wildtype p53 assessed as fold change in cleaved PARP level at 0.1 uM incubated for 2 hrs by Western blot analysis
[20] = molecular target: T1, von Hippel-Lindau disease tumor suppressor/E3 ubiquitin-protein ligase Mdm2 (Homo sapiens); assay: PROTAC activity at VHL/MDM2 in human RS4-11 cells harbouring wildtype p53 assessed as fold change in cleaved PARP level at 0.3 uM incubated for 2 hrs by Western blot analysis
[21] = molecular target: T1, von Hippel-Lindau disease tumor suppressor/E3 ubiquitin-protein ligase Mdm2 (Homo sapiens); assay: PROTAC activity at VHL/MDM2 in human RS4-11 cells harbouring wildtype p53 assessed as fold change in cleaved PARP level at 1 uM incubated for 2 hrs by Western blot analysis
[22] = molecular target: T1, von Hippel-Lindau disease tumor suppressor/E3 ubiquitin-protein ligase Mdm2 (Homo sapiens); assay: PROTAC activity at VHL/MDM2 in human RS4-11 cells harbouring wildtype p53 assessed as fold change in cleaved PARP level at 3 uM incubated for 2 hrs by Western blot analysis
[23] = molecular target: T1, von Hippel-Lindau disease tumor suppressor/E3 ubiquitin-protein ligase Mdm2 (Homo sapiens); assay: PROTAC activity at VHL/MDM2 in human RS4-11 cells harbouring wildtype p53 assessed as fold change in cleaved PARP level at 10 uM incubated for 2 hrs by Western blot analysis

`Cc1ncsc1-c1ccc([C@H](C)NC(=O)[C@@H]2C[C@@H](O)CN2C(=O)[C@@H](NC(=O)CCCOCCOCCOCCNC(=O)c2ccc(NC(=O)[C@@H]3NC4(CCCCC4)[C@@]4(C(=O)Nc5cc(Cl)ccc54)[C@H]3c3cccc(Cl)c3F)cc2)C(C)(C)C)cc1` was tested, and the fold change (FC) [1] was 1.5, the fold change (FC) [2] was 1.3 and the fold change (FC) [3] was 1.6. It also gave a fold change (FC) [4] of 1.7, a fold change (FC) [5] of 2.2 and a fold change (FC) [6] of 3.1. The fold change (FC) [7] was 3.9, the fold change (FC) [8] was 6.1 and the fold change (FC) [9] was 8.3. It also gave a fold change (FC) [10] of 9.9, a fold change (FC) [11] of 3.8 and a fold change (FC) [12] of 1.8. It also gave a fold change (FC) [13] of 1.8, a fold change (FC) [14] of 2.2 and a fold change (FC) [15] of 3.2. For the same compound, the fold change (FC) [16] was 4.5, the fold change (FC) [17] was 7.3 and the fold change (FC) [18] was 47.8. For the same compound, the fold change (FC) [19] was 2.9, the fold change (FC) [20] was 6.5 and the fold change (FC) [21] was 40.1. For the same compound, the fold change (FC) [22] was 60.5 and the fold change (FC) [23] was 92.3.
